17 compounds from patent EP1976513B1 (priority 2006, dated 2007) can be followed below.

The chains behind the UniProt entries cited, without tags or fusion partners. Residues count along the entry.
UniProt P23975, whole entry: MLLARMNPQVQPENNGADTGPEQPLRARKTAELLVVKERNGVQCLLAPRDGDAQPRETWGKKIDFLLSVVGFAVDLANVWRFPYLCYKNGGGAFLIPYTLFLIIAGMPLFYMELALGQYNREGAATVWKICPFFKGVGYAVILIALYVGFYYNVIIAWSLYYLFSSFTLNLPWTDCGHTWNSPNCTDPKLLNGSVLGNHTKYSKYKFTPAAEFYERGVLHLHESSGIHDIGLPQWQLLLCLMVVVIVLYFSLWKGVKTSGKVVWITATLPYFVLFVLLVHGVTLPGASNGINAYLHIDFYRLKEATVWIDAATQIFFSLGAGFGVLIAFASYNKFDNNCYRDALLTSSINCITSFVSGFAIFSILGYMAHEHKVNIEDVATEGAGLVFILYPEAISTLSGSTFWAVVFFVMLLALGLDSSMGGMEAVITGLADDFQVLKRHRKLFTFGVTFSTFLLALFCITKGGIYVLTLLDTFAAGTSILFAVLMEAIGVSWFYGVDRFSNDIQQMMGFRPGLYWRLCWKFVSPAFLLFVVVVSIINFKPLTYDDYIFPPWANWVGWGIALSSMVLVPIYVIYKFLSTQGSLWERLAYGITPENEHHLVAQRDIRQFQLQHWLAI
UniProt P31645, whole entry: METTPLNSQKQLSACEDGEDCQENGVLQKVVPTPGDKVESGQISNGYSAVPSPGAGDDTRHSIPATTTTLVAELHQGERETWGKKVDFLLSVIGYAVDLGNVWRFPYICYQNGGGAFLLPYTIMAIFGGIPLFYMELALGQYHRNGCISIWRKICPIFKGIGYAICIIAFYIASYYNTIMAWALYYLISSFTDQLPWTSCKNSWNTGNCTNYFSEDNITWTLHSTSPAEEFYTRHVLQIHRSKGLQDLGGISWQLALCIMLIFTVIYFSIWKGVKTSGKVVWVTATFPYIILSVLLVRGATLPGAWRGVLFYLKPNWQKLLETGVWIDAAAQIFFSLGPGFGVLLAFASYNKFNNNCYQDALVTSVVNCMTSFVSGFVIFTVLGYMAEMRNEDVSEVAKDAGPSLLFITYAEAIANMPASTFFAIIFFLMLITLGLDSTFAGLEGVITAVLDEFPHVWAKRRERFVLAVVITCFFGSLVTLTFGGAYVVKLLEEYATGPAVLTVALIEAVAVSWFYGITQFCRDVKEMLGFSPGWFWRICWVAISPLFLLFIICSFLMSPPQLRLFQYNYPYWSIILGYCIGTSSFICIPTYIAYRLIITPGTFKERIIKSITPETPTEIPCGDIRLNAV
UniProt Q01959, whole entry: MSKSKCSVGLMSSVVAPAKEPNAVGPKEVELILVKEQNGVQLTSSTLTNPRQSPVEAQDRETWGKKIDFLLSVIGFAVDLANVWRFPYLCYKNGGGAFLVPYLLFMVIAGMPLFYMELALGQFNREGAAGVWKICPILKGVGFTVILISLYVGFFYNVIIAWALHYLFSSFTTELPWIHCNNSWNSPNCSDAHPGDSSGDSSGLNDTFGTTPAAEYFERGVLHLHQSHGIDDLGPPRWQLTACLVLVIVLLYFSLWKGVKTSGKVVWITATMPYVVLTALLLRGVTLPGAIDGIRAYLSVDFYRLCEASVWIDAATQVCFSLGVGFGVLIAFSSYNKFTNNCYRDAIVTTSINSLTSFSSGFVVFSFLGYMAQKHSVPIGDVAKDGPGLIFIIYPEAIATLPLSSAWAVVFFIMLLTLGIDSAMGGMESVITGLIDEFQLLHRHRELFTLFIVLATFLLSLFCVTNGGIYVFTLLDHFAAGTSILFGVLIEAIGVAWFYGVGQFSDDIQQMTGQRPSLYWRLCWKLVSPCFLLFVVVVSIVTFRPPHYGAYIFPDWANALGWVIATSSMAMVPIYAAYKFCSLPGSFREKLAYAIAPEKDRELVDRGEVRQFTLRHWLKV
UniProt Q63380, 1-617: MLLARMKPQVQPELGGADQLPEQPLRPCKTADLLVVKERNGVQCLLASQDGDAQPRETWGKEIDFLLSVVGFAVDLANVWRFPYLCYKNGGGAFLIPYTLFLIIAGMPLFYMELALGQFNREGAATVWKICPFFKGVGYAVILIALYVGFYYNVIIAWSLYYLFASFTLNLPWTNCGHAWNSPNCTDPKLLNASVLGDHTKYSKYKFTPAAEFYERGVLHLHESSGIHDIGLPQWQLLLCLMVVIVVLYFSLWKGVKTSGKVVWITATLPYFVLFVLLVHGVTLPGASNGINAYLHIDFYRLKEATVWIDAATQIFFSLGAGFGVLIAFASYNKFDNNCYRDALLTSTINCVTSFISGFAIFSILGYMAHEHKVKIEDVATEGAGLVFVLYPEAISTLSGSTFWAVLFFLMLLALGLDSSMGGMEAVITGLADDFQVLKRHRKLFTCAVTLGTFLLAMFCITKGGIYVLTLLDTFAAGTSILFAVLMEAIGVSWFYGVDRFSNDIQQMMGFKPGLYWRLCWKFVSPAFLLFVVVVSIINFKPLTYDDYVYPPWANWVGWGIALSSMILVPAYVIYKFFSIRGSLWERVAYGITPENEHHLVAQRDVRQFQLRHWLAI
UniProt P31652, whole entry: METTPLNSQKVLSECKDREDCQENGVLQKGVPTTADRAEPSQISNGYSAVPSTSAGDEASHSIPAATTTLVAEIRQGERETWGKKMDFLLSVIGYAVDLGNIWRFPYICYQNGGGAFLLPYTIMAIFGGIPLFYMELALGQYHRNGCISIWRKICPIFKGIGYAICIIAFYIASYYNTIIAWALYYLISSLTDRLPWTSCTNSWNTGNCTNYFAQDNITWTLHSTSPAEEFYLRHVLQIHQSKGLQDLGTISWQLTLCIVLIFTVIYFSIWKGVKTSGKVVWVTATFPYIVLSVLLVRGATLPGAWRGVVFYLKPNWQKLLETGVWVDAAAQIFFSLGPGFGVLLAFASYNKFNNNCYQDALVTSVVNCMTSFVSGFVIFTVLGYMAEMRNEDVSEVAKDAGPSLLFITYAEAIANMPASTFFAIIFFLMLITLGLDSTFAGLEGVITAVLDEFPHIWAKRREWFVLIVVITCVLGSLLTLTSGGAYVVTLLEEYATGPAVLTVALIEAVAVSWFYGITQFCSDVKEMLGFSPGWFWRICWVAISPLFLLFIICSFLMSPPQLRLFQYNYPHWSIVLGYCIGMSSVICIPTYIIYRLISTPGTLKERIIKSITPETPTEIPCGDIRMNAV
UniProt Q61327, whole entry: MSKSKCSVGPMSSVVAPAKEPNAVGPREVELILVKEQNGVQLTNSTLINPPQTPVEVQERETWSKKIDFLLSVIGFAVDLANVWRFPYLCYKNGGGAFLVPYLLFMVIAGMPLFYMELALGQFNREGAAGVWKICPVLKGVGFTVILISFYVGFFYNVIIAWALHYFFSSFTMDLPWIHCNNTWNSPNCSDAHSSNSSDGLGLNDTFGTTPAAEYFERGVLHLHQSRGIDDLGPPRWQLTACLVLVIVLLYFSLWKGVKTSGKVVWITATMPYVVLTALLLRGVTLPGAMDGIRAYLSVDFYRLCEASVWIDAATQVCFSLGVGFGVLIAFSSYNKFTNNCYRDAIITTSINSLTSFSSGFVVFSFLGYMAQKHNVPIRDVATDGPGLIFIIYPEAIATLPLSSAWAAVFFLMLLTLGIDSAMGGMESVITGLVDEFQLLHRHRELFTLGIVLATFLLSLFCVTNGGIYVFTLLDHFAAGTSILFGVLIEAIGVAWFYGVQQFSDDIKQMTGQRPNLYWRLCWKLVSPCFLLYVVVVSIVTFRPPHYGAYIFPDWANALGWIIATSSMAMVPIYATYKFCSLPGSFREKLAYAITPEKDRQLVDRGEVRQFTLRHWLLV
UniProt P23977, whole entry: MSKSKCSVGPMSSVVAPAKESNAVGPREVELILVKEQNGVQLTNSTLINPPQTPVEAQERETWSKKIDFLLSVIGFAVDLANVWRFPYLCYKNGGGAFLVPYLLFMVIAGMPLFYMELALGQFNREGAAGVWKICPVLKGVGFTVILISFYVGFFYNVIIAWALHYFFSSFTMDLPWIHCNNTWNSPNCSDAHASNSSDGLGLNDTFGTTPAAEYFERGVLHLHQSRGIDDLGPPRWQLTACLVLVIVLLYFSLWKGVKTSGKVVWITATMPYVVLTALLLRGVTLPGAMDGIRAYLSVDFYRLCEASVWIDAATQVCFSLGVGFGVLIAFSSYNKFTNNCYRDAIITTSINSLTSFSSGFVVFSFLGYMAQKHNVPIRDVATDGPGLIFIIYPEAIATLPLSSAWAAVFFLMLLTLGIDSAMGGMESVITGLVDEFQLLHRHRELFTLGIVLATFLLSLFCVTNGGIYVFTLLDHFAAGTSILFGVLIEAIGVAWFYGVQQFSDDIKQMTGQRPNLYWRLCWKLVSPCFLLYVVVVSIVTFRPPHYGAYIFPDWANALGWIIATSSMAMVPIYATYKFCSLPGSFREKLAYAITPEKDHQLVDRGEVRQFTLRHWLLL

The target of test [1] is human norepinephrine reuptake transporter (Homo sapiens, UniProt P23975). The test is described as follows: cell-based.
The target in test [2] is human serotonin reuptake transporter (Homo sapiens, UniProt P31645). Description: cell-based.
In test [3] the target is T1, human dopamine reuptake transporter (Homo sapiens, UniProt Q01959).
T1 construct: expressed in transfected cells; host or cells: CHO-K1 or HEK293
Description: cell-based. The conditions noted are these: Human IC50 (nM) hDAT.

The subject of a further test is mice. Description: Mouse tail suspension test. The conditions noted are these: PO, 30-60 minutes before the test, 5 minutes recording. Format: in vivo. Here is the method: The method, which detects antidepressant activity, follows that described by Stéru et al (Psychopharmacology, 85, 367-370, 1985). Rodents, suspended by the tail, rapidly become immobile. Antidepressants decrease the duration of immobility.
Ten to twelve mice were tested in each group. The test was performed blind. Compounds were typically evaluated at 3 doses (1-30 mg/kg), administered orally one time: 30-60 minutes before the test, and compared with a vehicle control group. Desipramine (100 mg/kg), administered under the same experimental conditions, was used as the positive reference substance.
Data were analyzed by one way analysis of variance (ANOVA) followed by post-hoc comparisons where appropriate. An effect was considered significant if p < 0.05. Data are represented as the mean and standard error to the mean (s.e.m).

In test [4] the target is T2, norepinephrine transporter (Rattus norvegicus, UniProt Q63380).
T2 construct: synaptosomes isolated in a 0.32 M sucrose buffer from a male Wistar rat hypothalamus; from tissue; host or cells: male Wistar rat hypothalamus synaptosomes
The test is described as follows: biochemical. Conditions: Rat IC50 (nM) rNET, rat synaptosomes, norepinephrine transporter (NET).

For another test, the system named is Rats. Description: Rat forced swim test. Format: in vivo. Conditions: PO, 24 hours and 30-60 minutes before the 5 minute test. Here is the method: Rats forced to swim in a situation from which they cannot escape rapidly become immobile. Antidepressants decrease the duration of immobility. […] Selective NE reuptake inhibitors decrease immobility by increasing climbing behaviors whereas selective 5-HT reuptake inhibitors decrease immobility by increasing swimming behaviors.
Rats were individually placed in a cylinder (Height = 40 cm; Diameter = 20 cm) containing 22 cm water (25°C) for 15 minutes on the first day of the experiment (Session 1) and were then put back in the water 24 hours later for a 5 minute test (Session 2). The sessions were videotaped and duration of immobility as well as swimming and climbing behaviors during the 5 minute test were measured. Twelve rats were tested in each group. The test was performed blind. Compounds were typically evaluated at 3 doses (1-30 mg/kg), administered orally 2 times: 24 hours and 30-60 minutes before the test (Session 2), and compared with a vehicle control group. Desipramine (20 mg/kg i.p.), administered under the same experimental conditions, was used as the positive reference substance.
Data were analyzed by one way analysis of variance (ANOVA) followed by post-hoc comparisons where appropriate. An effect will be considered significant if p < 0.05. Data are represented as the mean and standard error to the mean (s.e.m).

The next test addresses T3, serotonin transporter (Rattus norvegicus, UniProt P31652).
T3 construct: synaptosomes isolated in a 0.32M sucrose buffer from a male Wistar rat cortex; from tissue; host or cells: male Wistar rat cortex synaptosomes
Description: biochemical. The conditions noted are these: Rat IC50 (nM) rSERT, rat synaptosomes, serotonin transporter (SERT).

Test [5] has as its target T4, DA Transporter (DAT) Sites in Mouse Brain (Mus musculus, UniProt Q61327).
T4 construct: Striatum was used to determine occupancy of DA transporter sites; from tissue; host or cells: C57BL/6 mouse striatum homogenate
The test is described as follows: Ex vivo [3H] WIN 35428 binding after oral dosing. On the set-up: species or system C57BL/6 mice. Conditions: 1 mg/kg, mice sacrificed 60 minutes after treatment, striatum.

The target in another test is T5, dopamine transporter (Rattus norvegicus, UniProt P23977).
T5 construct: synaptosomes isolated in a 0.32 M sucrose buffer from a male Wistar rat striatum; from tissue; host or cells: male Wistar rat striatum synaptosomes
Description: biochemical. Conditions: Rat IC50 (nM) rDAT, rat synaptosomes, dopamine transporter (DAT).

Structures are written as SMILES. Read-outs that look alike come from different tables or passages of the source.

What is called IC50 is the concentration that gives 50% inhibition. As to `CN(C)C[C@@]1(c2ccc3ccccc3c2)CC=CCC1` [Compound 293, N,N-dimethyl(1-(naphthalen-2-yl)cyclohex-3-enyl)methanamine], the IC50 was 33 nM in [1] (read-out: Human IC50 (nM) hNET) and 42 nM in test [2] (read-out: Human IC50 (nM) hSERT).
`CN(C)CC1(c2ccc(Cl)c(Cl)c2)CCCC(F)(F)C1` (single isomer, unassigned) [206 E1, 1-(1-(3,4-dichlorophenyl)-3,3-difluorocyclohexyl)-N,N-dimethylmethanamine]: half-maximal inhibition in test [2] (Human IC50 (nM) hSERT) (IC50) was put at 72 nM.
In the case of `CC(N)C1(c2ccc(OC(F)(F)F)cc2)CCCCC1` (single isomer, unassigned) [19 E2, 1-(1-(4-(trifluoromethoxy)phenyl)cyclohexyl)ethanamine], the half-maximal inhibitory concentration (IC50) in test [1] (Human IC50 (nM) hNET) was 4030 nM.
In the case of `CC(N)C1(c2ccc(OC(F)(F)F)cc2)CCCCC1` (single isomer, unassigned) [19 E1, 1-(1-(4-(trifluoromethoxy)phenyl)cyclohexyl)ethanamine], the IC50 in test [1] (Human IC50 (nM) hNET) was 1900 nM.
Compound `CNCC1(c2ccc(Cl)c(Cl)c2)CCCC(F)(F)C1` (single isomer, unassigned) [205 E2, 1-(1-(3,4-dichlorophenyl)-3,3-difluorocyclohexyl)-N-methylmethanamine] gave an IC50 in [3] of 12 nM.
On the same count and under the same terms, the figure for `CC(C)CC(N)C1(c2ccc(Cl)cc2)CCCCC1` (single isomer, unassigned) [21 E2, 1-(1-(4-chlorophenyl)cyclohexyl)-3-methylbutan-1-amine] is 64 nM.
Regarding `CN(C)CC1(c2ccc(Cl)c(Cl)c2)CCC(C)(O)CC1` (centres unmarked) [Compound 277, 4-(3,4-dichlorophenyl)-4-((dimethylamino)methyl)-1-methylcyclohexanol], the results for the “Mouse Tail Suspension Mean Immobility Time ± S.E.M.” value in the test with mice (3 mg/kg), in the test with mice (10 mg/kg) and with mice (30 mg/kg) were 182.3 ± 8.1, 164.4 ± 6.8 and 147.1 ± 3.1, respectively. For the same compound, 2.7 nM corresponded to half-maximal inhibition in [4] (IC50). The figures for the “Rat Forced Swim (Means ± S.E.M.) Climbing” value in the test with Rats (3 mg/kg), in the test on Rats (10 mg/kg) and with Rats (30 mg/kg) were 9.0 ± 1.2, 13.8 ± 2.3 and 35.6 ± 5.2, respectively. In addition, the “Rat Forced Swim (Means ± S.E.M.) Immobility” value in the test on Rats (3 mg/kg) came out at 50.4 ± 1.1; with Rats (10 mg/kg), 42.5 ± 2.6; in the test with Rats (30 mg/kg) it was 14.6 ± 3.5. Further, the “Rat Forced Swim (Means ± S.E.M.) Swimming” value in the test on Rats (3 mg/kg) is reported as 0.8 ± 0.3; with Rats (10 mg/kg), 3.7 ± 0.9; in the test with Rats (30 mg/kg) it was 6.1 ± 1.4.
`CC(C)CC(N)C1(c2ccc(Cl)cc2)CCCCC1` (centres unmarked) [Compound 21, 1-(1-(4-chlorophenyl)cyclohexyl)-3-methylbutan-1-amine] displayed an IC50 in test [3] of 43 nM.
In test [1] (Human IC50 (nM) hNET), `CC(N)C1(c2ccc(Cl)c(Cl)c2)CCCCC1` (single isomer, unassigned) [2 E1, 1-(1-(3,4-dichlorophenyl)cyclohexyl)ethanamine] gave a half-maximal inhibitory concentration (IC50) of 167 nM.
With `CC(N(C)C)C1(c2ccc3ccccc3c2)CCCCC1` (single isomer, unassigned) [56 E2, N,N-dimethyl-1-(1-(naphthalen-2-yl)cyclohexyl)ethanamine], the results for the IC50 in test [1] (Human IC50 (nM) hNET) and in test [2] (Human IC50 (nM) hSERT) were 468 nM and 63 nM, respectively.
Take `CNCC1(c2ccc(Cl)c(Cl)c2)CCCCC1.Cl` [Compound 75, 1-(1-(3,4-dichlorophenyl)cyclohexyl)-N-methylmethanamine (hydrochloride)]: it took 110 nM to reach half-maximal inhibition against serotonin transporter (IC50).
Regarding `CC(N(C)C)C1(c2ccc3ccccc3c2)CCCCC1` (racemic) [Compound 55, N,N-dimethyl-1-(1-(naphthalen-2-yl)cyclohexyl)ethanamine], half-maximal inhibition in test [1] (Human IC50 (nM) hNET) (IC50) was put at 61 nM.
Consider `CC(N)C1(c2ccc(Cl)c(Cl)c2)CCCCC1` (single isomer, unassigned) [Compound 2E2, 1-(1-(3,4-dichlorophenyl)cyclohexyl)ethanamine], for which, in test [1] (Human IC50 (nM) hNET), half-maximal inhibition (IC50) was put at 1040 nM.
Same read-out and setting: then `CC(N)C1(c2ccc(OC(F)(F)F)cc2)CCCCC1` (centres unmarked) [Compound 19, 1-(1-(4-(trifluoromethoxy)phenyl)cyclohexyl)ethanamine], with 3180 nM; and `CC(C)CC(N(C)C)C1(c2ccc(Cl)c(Cl)c2)CCCCC1` (racemic) [Compound 46, 1-(1-(3,4-dichlorophenyl)cyclohexyl)-N,N,3-trimethylbutan-1-amine], with above 10000 nM.
For the compound `CC(N(C)C)C1(c2ccc3ccccc3c2)CCCCC1` (single isomer, unassigned) [56 E1, N,N-dimethyl-1-(1-(naphthalen-2-yl)cyclohexyl)ethanamine], the IC50 is 21 nM in [1] (Human IC50 (nM) hNET) and below 1 nM in test [2] (Human IC50 (nM) hSERT).
For the compound `CNCC1(c2ccc(Cl)c(Cl)c2)CCC(C)(O)CC1` (centres unmarked) [Compound 276, 4-(3,4-dichlorophenyl)-1-methyl-4-((methylamino)methyl)cyclohexanol], the entries for the “Mouse Tail Suspension Mean Immobility Time ± S.E.M.” value with mice (3 mg/kg), with mice (10 mg/kg) and with mice (30 mg/kg) were 182.0 ± 4.2, 164.1 ± 5.7 and 160.2 ± 7.2, respectively. Besides, the IC50 in [4] came to 17 nM; on dopamine transporter, 190 nM; at serotonin transporter, 360 nM. The “Mean Specific Binding (dpm) ± S.E.M., DAT” value in test [5] stood at 18155 ± 2275 dpm.
